High-throughput results as filed in PubChem.
Most compounds without a hit are left out; they make up all but 13% or so of the library.
LMNA splice mod: changes lamin A minigene splicing in HeLa cells. Potency, µM (top dose mostly 46.1 µM), for the others: at the top dose ratio change, negative = inhibition, actives largely listed as inhibitors. HeLa LMNA splicing GFP/RFP minigene ratio, 48 h. 200,000 compounds, 0.01% hits; active = well fitted inhibition curve with a large enough effect in the signal ratio, with a control signal flat, not every such curve was filed as active; inconclusive = small, poorly fitted or top-dose-only effect, or effect the other way, or a change in a side signal; the % refers to the signal ratio; also: potency is read from the fitted curve at half-maximal effect; % is scaled to controls: 0 for no effect and ±100 for the full control effect
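S3 HeLa cells stably expressing lamin A-EGFP splicing minigene plus DsRed2, 600 cells/well, 48 h compound exposure at 37C. Laser-scanning cytometry; analysed as GFP (500-530 nm)/RFP (575-640 nm) total intensity ratio; 0.5% DMSO vehicle.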
ALDH1A1 inh: ALDH1A1 (human) enzyme inhibition; Purified ALDH1A1, NADH fluorescence, propionaldehyde substrate; Potency, µM (titrated, usually from 75.3 µM), for inactives: top-dose activity, negative = inhibition, most hits filed as inhibitors; 220,000 compounds, 7.3% hits; AID 1030; active = well fitted inhibition curve with a large enough effect, not every such curve was filed as active; inconclusive = small, poorly fitted or top-dose-only effect, or another doubt; inactive = no such curve, though single readings can be large or run the other way;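 also: potency is read from the fitted curve at half-maximal effect; plate controls were no enzyme wells and a reference inhibitor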
miR-21 reporter: miR-21 reporter, rising signal; HeLa miR-21 FLuc reporter, luciferase, 48 h; Potency, µM (highest dose often 38.3 µM), for the others: top-dose reporter change, positive = more light; 340,000 tested, under 10 active; AID 2288; active = well fitted rising curve with a large enough effect; inconclusive = small, poorly fitted or top-dose-only effect; inactive = no such curve, though single readings can be large or run the other way;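 further: % of control where 0% means no effect; miR-21 action dims this reporter so a rising signal means less miR-21 action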
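HeLa miR-21-FLuc reporter line, endogenous miR-21; 2000 cells/well in DMEM/10% FBS; compound titration up to ~40uM final, 48 h, 37 degree Celsius; luciferase detection reagent, 15 min lysis, CCD luminescence.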
G9a block: blocks human histone lysine methyltransferase G9a; G9a H3K9 monomethylation, AlphaScreen, 2 h; Potency, µM (series often up to 102 µM), without a hit: top-dose activity, negative = inhibition, hits mostly inhibitors; 350,000 compounds, 8.8% hits; also: potency is read from the fitted curve at half-maximal effect; % is scaled to controls: 0 for no effect and ±100 for the full control effect; nearly all actives have a fitted effect of over 75% in size
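G9a (20 nM) was preincubated 15 min with compound, then reacted 2 h at room temperature with 500 nM biotin-H3K9 peptide and 20 µM SAM. Monomethyl-H3K9 detected by AlphaScreen using anti-H3K9me1 antibody.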
JMJD2E inh: JMJD2E (human) inhibition; B2RXH2; JMJD2E catalytic domain, FDH-coupled NADH fluorescence (FDH is formaldehyde dehydrogenase); Potency, µM (top dose mostly 57.1 µM), for the others: at the highest dose activity change, negative = inhibition, most hits filed as inhibitors; 230,000 compounds, 1.6% hits; AID 2147; active = well fitted inhibition curve with a large enough effect, not every such curve was filed as active; inconclusive = small, poorly fitted or top-dose-only effect, or another doubt; inactive = no such curve, though single readings can be large or run the other way;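 also: potency is read from the fitted curve at half-maximal effect; 0% = wells with enzyme and -100% = buffer wells without enzyme; nearly all actives have a fitted effect of over 50% in size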
Sfp inh: Sfp phosphopantetheinyl transferase inhibition. 3.5% of 310,000 active. AID 1490. Potency, µM, inactives show max response, negative = inhibition, actives largely listed as inhibitors. Biochemical Sfp PPTase activity, qHTS; active = well fitted inhibition curve with a large enough effect; inconclusive = small, poorly fitted or top-dose-only effect, or another doubt; inactive = no such curve, though single readings can be large or run the other way;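 note: the enzyme is Sfp with the accession as filed and its product quenches rhodamine fluorescence; potency is the fitted concentration of half-maximal effect; 0% = enzyme reaction without inhibitor and -100% = no enzyme wells; top concentration of the series not given in the record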
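Fluorescence-quenching assay: 15 nM Sfp-PPTase preincubated 15 min at room temperature with compound, then 5 uM rhodamine-CoA and 12.5 uM BHQ-2-labelled YbbR peptide added. Fluorescence (ex 525/em 598 nm) read at start and after 30 min; difference gives rate.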
* marks the source's active call; other numbers are inactive results; ? = inconclusive; . = no result given; [ ] = another dose, or the depositor's remark. Unless noted, calls follow the shape of the dose curve; as a rule, active = well fitted curve in the direction sought with a large enough effect; inconclusive = small, poorly fitted or top-dose-only effect, or another doubt; inactive = no such curve, though single readings can be large; an effect the other way counts as inactive or inconclusive.

SMILES	LMNA splice mod	ALDH1A1 inh	miR-21 reporter	G9a block	JMJD2E inh	Sfp inh
O=C(NCSc1ccnc(SCNC(=O)c2ccccc2)n1)c1ccccc1	2.5%	-1.7%	-5.2%	3.98µM*	-4.7%	-19.2%
O=C(NCCSc1ccccc1)c1ccccc1	-7.6%	-2.1%	-52.0%	-3.0%[12.7 µM]	4.9%	5.3%
O=C(NCSc1ccncn1)c1ccccc1	6.8%	-16.6%	-0.8%	?	9.8%	20µM*
Cc1c(Nc2nc3ccccc3n3c(C)nnc23)cccc1C(=O)O	4.2%[46 µM]	.	-7.4%	1.0%[59 µM]	.	.
Cc1oc2ccc(O)c(CN3CCCCCC3)c2c1C(=O)Nc1cccc(C(F)(F)F)c1	.	.	27.5%	-25.8%[59 µM]	.	.
Cc1cc(C)c(Cn2c3ccccc3c3cnn(CC(=O)NC4CCC(C)CC4)c(=O)c32)c(C)c1 (stereo not given)	.	.	1.5%	14.8%[59 µM]	.	.
Cc1c2cnn(-c3ccccc3)c(=O)c2c(C)n1CC(=O)NCc1ccccc1	.	.	-2.1%	-3.4%[59 µM]	.	.
CC(=O)c1ccc(N=Nc2c(C)[nH]n(-c3ccccc3)c2=O)cc1	.	.	-7.8%	3.55µM*	.	-57.6%
COc1ccccc1N=Nc1c(C)[nH]n(-c2ccccc2)c1=O	.	.	-2.4%	-20.8%	.	13.5%
Cc1[nH]n(-c2ccccc2)c(=O)c1N=Nc1c(Cl)cccc1Cl	.	.	0.8%	22.4µM*	.	23.5%
Cc1[nH]n(-c2ccccc2)c(=O)c1N=Nc1ccc(Cl)cc1	.	.	0.8%	9.3%[0.501 µM]	.	?
Cc1[nH]n(-c2ccccc2)c(=O)c1N=Nc1ccccc1	.	8.3%	-24.9%	3.55µM*	12.2%	15.6%
Nc1[nH]n(-c2ccccc2)c(=O)c1N=Nc1ccc2c(c1)OCCO2	?	?	-6.9%	10µM*	-1.6%	-1.1%
CCC[C@@H]1C[C@@]1(CCC)C(NC(=O)c1ccccc1)c1cccc(Cl)c1 (stereo not given in full)	.	3.0%	.	.	-6.5%	29.2%
COc1cccc(N2CCN(C(=O)c3cnn(-c4ccc(C)cc4C)c3C3CCN(C(=O)OC(C)(C)C)CC3)CC2)c1	-28.2%[46 µM]	.	25.8%	?	.	.
CCC(C)NC(=O)c1ccc(Cn2c(=O)c3cccn3c3cccnc32)cc1 (stereo not given)	.	.	-7.4%	9.0%[59 µM]	.	.
COc1ccc(-c2cc(C(F)(F)F)nc(SCCC(=O)Nc3ccc(NC(C)=O)cc3)n2)cc1	.	.	2.0%	-3.4%[59 µM]	.	.
Cc1cc(C)cc(C(=O)Nc2c3c(nn2-c2ccccc2C)CS(=O)(=O)C3)c1	-3.6%[46 µM]	.	-1.7%	-19.1%[59 µM]	.	.
Cc1[nH]n(-c2ccccc2)c(=O)c1N=Nc1ccc(C(=O)O)cc1	.	.	-12.0%	79.4µM*	.	1.9%
CC1CC(C)CN(CCOCCSc2ccc(Cl)cc2)C1 (stereo not given)	.	-0.3%	6.8%	6.31µM*	-1.2%	56.2µM*
CC1CN(CCCCSc2ccccc2)CC(C)O1 (stereo not given)	.	.	-9.0%	8.1%	.	3.9%
CC1CCCN(CCOCCSc2ccccc2)C1 (stereo not given)	10.4%	-9.2%	-5.7%	10µM*	?	-12.8%
c1ccc(SCCOCCN2CCOCC2)cc1	.	.	-27.0%	.	.	-14.7%
CC1CC(C)CN(CCOCCSc2ccccc2)C1 (stereo not given)	?	14.1µM*	0.5%	?	-2.2%	-20.3%
CC1CC(C)CN(CCCSc2ccccc2)C1 (stereo not given)	6.0%	23.8µM*	0.8%	?	-7.5%	?
CC1CN(CCCSc2ccc(Cl)cc2)CC(C)O1 (stereo not given)	.	?	-9.3%	?	5.2%	?
NC(=O)CSc1nc2ccc(NC(=O)COc3ccccc3Cl)cc2s1	1.8%[46 µM]	.	-35.9%	-0.5%[59 µM]	.	.
O=C(COC(=O)C1CC2CCCC(C1)C2=O)NNC(=O)c1ccccc1F (stereo not given)	.	.	.	-4.1%	.	.
c1ccc(SCCOCCn2cncn2)cc1	-0.2%	28.2µM*	-5.0%	12.6µM*	?	-18.6%
CC(CNC(=O)c1cncc(O)c1)NC(=O)c1cncc(O)c1 (stereo not given)	5.1%	?	-1.1%	44.7µM*	?	79.4µM*

Entries of single compounds as entered above. Order of values: LMNA splice mod | ALDH1A1 inh | miR-21 reporter | G9a block | JMJD2E inh | Sfp inh
NC(=O)CSc1nc2ccc(NC(=O)COc3ccccc3Cl)cc2s1 as listed: 1.8%[46 µM] | . | -35.9% | -0.5%[59 µM] | . | .
CC1CN(CCCSc2ccc(Cl)cc2)CC(C)O1 (stereo not given) as listed: . | ? | -9.3% | ? | 5.2% | ?
Cc1c(Nc2nc3ccccc3n3c(C)nnc23)cccc1C(=O)O as listed: 4.2%[46 µM] | . | -7.4% | 1.0%[59 µM] | . | .
COc1ccccc1N=Nc1c(C)[nH]n(-c2ccccc2)c1=O as listed: . | . | -2.4% | -20.8% | . | 13.5%
